Measured values taken from paper PMC10810011 (Expert opinion on drug delivery, 2023).

Chains of the proteins cited; added tags and fusions are not shown.
UniProt P08588, whole entry: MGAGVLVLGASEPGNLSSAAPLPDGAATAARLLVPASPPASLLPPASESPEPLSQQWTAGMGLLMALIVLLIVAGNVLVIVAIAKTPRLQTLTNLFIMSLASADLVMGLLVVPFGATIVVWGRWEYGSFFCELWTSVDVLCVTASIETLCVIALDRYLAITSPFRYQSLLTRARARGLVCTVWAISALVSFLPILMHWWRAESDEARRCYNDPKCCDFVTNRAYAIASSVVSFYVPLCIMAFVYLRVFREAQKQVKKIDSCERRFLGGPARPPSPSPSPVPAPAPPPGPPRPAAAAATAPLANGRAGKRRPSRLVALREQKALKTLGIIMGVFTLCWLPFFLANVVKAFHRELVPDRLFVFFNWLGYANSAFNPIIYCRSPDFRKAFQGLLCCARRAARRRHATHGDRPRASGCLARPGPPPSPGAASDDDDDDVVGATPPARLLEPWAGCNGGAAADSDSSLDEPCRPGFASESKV

Target: beta1 adrenergic (Homo sapiens, UniProt P08588)
Test: InVEST radioligand filter binding, beta1 adrenergic

- IC50: 0.0102 µM
SMILES: C=CCc1ccccc1OCC(O)CNC(C)C (stereo not shown) [alprenolol, reference compound]
